# Key:
# By UniProt entry, the sequences of proteins in these tests, tags left out. Residues count along the entry.
# UniProt Q14416, 19-872 limits assumed: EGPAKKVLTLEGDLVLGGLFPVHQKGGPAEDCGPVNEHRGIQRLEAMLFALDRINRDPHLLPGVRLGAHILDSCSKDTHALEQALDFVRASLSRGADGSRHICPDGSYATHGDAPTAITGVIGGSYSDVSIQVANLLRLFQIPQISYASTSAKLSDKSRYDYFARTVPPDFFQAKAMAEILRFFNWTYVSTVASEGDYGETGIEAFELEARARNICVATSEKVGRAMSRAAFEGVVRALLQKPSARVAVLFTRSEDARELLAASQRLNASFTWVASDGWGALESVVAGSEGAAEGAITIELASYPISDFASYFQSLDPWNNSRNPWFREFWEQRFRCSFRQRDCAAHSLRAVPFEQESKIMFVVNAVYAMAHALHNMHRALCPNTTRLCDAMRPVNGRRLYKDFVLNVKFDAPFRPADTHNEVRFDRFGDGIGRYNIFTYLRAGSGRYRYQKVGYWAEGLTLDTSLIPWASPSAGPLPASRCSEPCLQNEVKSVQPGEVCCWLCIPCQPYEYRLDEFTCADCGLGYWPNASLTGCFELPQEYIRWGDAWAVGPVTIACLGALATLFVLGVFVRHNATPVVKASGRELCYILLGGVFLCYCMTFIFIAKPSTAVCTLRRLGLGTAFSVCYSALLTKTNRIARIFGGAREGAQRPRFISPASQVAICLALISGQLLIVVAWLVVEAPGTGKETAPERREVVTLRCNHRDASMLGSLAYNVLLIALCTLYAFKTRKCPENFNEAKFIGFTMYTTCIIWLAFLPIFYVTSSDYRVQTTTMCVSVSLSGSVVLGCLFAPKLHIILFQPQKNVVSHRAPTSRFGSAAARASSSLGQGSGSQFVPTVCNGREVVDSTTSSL
# [1] = target: human mGluR2 receptor (Homo sapiens, UniProt Q14416); experiment: [35S]GTPγS binding assay, positive allosteric modulation (GTPγS-PAM) in presence of EC20 glutamate; assay type: biochemical; settings: in presence of glutamate at EC20, average pEC50 if more experiments, ‡ means tested once
# [2] = test system: PCP-induced hyperlocomotion in male NMRI mice; experiment: Phencyclidine (PCP)-induced hyperlocomotion in mice (video tracking); settings: for Mice ED50 (mg/kg) PCP-Inh., estimated ED50 (footnote a): inhibition of PCP-induced hyperlocomotion, estimated ED50 values (n = 3 per dose; 4-fold separation between doses)
SMILES,GTPγS - hR2 PAM pEC50 [1],further results
CCCc1nnc2c(C(F)(F)F)c(CN3CCC(F)(c4ccccc4)CC3)ccn12,6.5 ‡,–
Cc1c(CN2CCC(c3ccccc3)CC2)ccn2c(CC3CC3)nnc12,5.83 ‡,"inhibition of PCP-induced hyperlocomotion in mice (in words) [2]: inhibited; Mice ED50 (mg/kg) PCP-Inh., estimated ED50 (footnote a) [2]: 12.6 ^a) mg/kg"
Clc1c(CN2C[C@@H]3[C@H](C2)[C@H]3c2ccccc2)ccn2c(CC3CC3)nnc12 (relative stereo),7.13,–
C[C@@H]1CN(c2ccn3c(CC4CC4)nnc3c2C(F)(F)F)CCN1c1ccccc1,6.73,–
Fc1ccc(N2CCCC3(CN(Cc4ccn5c(CC6CC6)nnc5c4Cl)C3)C2)cc1,5.97 ‡,–
FC(F)(F)C1(c2ccccc2)CCN(Cc2ccn3c(CC4CC4)nnc3c2Cl)CC1,6.8 ‡,–
COc1ccccc1C1CCN(c2ccn3c(OCC4CC4)nnc3c2Cl)CC1,6.31 ‡,–
C[C@@H]1CN(c2ccn3c(CC4CC4)nnc3c2Cl)CCN1c1cc(F)cc(F)c1,6.81,–
CC1(C)OC2(CCN(Cc3ccn4c(CC5CC5)nnc4c3C(F)(F)F)CC2)c2ccccc21,7.37,–
COc1ccccc1C1CCN(Cc2ccn3c(CC4CC4)nnc3c2Cl)CC1,6.59,–
CC1(c2ccccc2F)CCN(Cc2ccn3c(CC4CC4)nnc3c2Cl)CC1,6.84 ‡,–
Fc1cnc(N2CCN(Cc3ccn4c(CC5CC5)nnc4c3Cl)CC2)c(F)c1,5.96 ‡,–
COc1ccccc1N1CCN(Cc2ccn3c(CC4CC4)nnc3c2Cl)CC1,5.71 ‡,–
CCOc1c(F)cccc1N1CCN(Cc2ccn3c(CC4CC4)nnc3c2Cl)CC1,7.33,–
"CC1CN(c2ccn3c(CC4CC4)nnc3c2C(F)(F)F)CCC1c1ccccc1 (single isomer, unassigned)",7.52 ‡,–
C[C@H]1CN(c2ccn3c(CC4CC4)nnc3c2C(F)(F)F)CCN1c1ccccc1,7.34,–
Clc1c(CN2CCN(c3ccccn3)CC2)ccn2c(CC3CC3)nnc12,6.31 ‡,–
Clc1c(CN2CCc3oc4ccccc4c3C2)ccn2c(CC3CC3)nnc12,6.11 ‡,–
CCCc1nnc2c(C(F)(F)F)c(CN3C[C@@H]4[C@H](C3)[C@H]4c3ccccc3)ccn12 (relative stereo),7.23 ‡,–
COC1(c2ccccc2)CCN(Cc2ccn3c(CC4CC4)nnc3c2Cl)CC1,6.77,–
FC(F)(F)c1c(CN2CCC(n3ccc4ccccc43)CC2)ccn2c(CC3CC3)nnc12,7.27 ‡,–
CCOCc1nnc2c(C(F)(F)F)c(CN3CCN(c4ccc(F)cc4F)CC3)ccn12,–,GTPγS - hR2 PAM pEC50 ([1]; tested form: hydrochloride): 6.57 ‡
CC1(c2ccc(F)cc2)CCN(Cc2ccn3c(CC4CC4)nnc3c2Cl)CC1,6.4,"inhibition of PCP-induced hyperlocomotion in mice (in words) [2]: inhibited; Mice ED50 (mg/kg) PCP-Inh., estimated ED50 (footnote a) [2]: 7.9 ^a) mg/kg"
Clc1c(CN2CCC3(C=Cc4ccccc43)CC2)ccn2c(CC3CC3)nnc12,7.24 ‡,–

SMILES,GTPγS - hR2 PAM pEC50 [1],further results
CC1(C)OC2(CCN(c3ccn4c(CC5CC5)nnc4c3C3CC3)CC2)c2ccccc21,6.73,–
CCOCc1nnc2c(C(F)(F)F)c(CN3C[C@@H]4[C@H](C3)[C@H]4c3ccccc3)ccn12 (relative stereo),7.11 ‡,–
FC1(c2ccccc2)CCN(Cc2ccn3c(CC4CC4)nnc3c2Cl)CC1,6.37,"inhibition of PCP-induced hyperlocomotion in mice (in words) [2]: inhibited; Mice ED50 (mg/kg) PCP-Inh., estimated ED50 (footnote a) [2]: 1.25 ^a) mg/kg"
CC1(c2ccc(F)cc2)CCN(Cc2ccn3c(CC(F)(F)F)nnc3c2Cl)CC1,6.83,–
C[C@H](c1ccc(F)cc1)N1CCN(c2ccn3c(CC4CC4)nnc3c2Cl)CC1,6.33 ‡,–
CC(C)Cc1nnc2c(C(F)(F)F)c(CN3C[C@@H]4[C@H](C3)[C@H]4c3ccccc3)ccn12 (relative stereo),7.39 ‡,–
COc1cc(F)ccc1N1CCN(Cc2ccn3c(CC4CC4)nnc3c2Cl)CC1,6.01,–
Clc1ccccc1C1CCN(Cc2ccn3c(CC4CC4)nnc3c2Cl)CC1,7.3,"inhibition of PCP-induced hyperlocomotion in mice (in words) [2]: inhibited; Mice ED50 (mg/kg) PCP-Inh., estimated ED50 (footnote a) [2]: 20 ^a) mg/kg"
C[C@H]1CN(c2ccn3c(CC4CC4)nnc3c2C(F)(F)F)CCN1c1cc(F)cc(F)c1,7.23,–
CC1(c2cccc(F)c2)CCN(Cc2ccn3c(CC(F)(F)F)nnc3c2Cl)CC1,6.82,–
COCCOCc1nnc2c(Cl)c(N3CCC(c4ccccc4)CC3)ccn12,6.07,–
CCCCc1nnc2c(C(F)(F)F)c(CN3CCC(c4ccccc4)CC3)ccn12,7.55,"inhibition of PCP-induced hyperlocomotion in mice (in words) [2]: inhibited; Mice ED50 (mg/kg) PCP-Inh., estimated ED50 (footnote a) [2]: 7.9 ^a) mg/kg"
Cc1cc(C)nc(N2CCN(Cc3ccn4c(CC5CC5)nnc4c3C(F)(F)F)CC2)n1,6.41,–
CC1(c2cccc(F)c2)CCN(Cc2ccn3c(CC4CC4)nnc3c2Cl)CC1,6.74,–
Fc1ccc(N2CC3(CCCN(Cc4ccn5c(CC6CC6)nnc5c4Cl)C3)C2)cc1,6.97,–
FC(F)(F)C1CCN(Cc2ccn3c(CC4CC4)nnc3c2Cl)CC1,5.75 ‡,–
Clc1c(N2CCN(C[C@H]3C[C@@H]3c3ccccc3)CC2)ccn2c(CC3CC3)nnc12 (relative stereo),5.88,–
Cc1cc(C)nc(N2CCN(Cc3ccn4c(CC5CC5)nnc4c3Cl)CC2)n1,5.58 ‡,–
FC(F)(F)c1c(CN2CCc3oc4ccccc4c3C2)ccn2c(CC3CC3)nnc12,6.87,–
CC(C)Cc1nnc2c(C(F)(F)F)c(CN3CCC(F)(c4ccccc4)CC3)ccn12,6.64 ‡,–
Fc1cccc(F)c1C1CCN(Cc2ccn3c(CC4CC4)nnc3c2C(F)(F)F)CC1,–,"inhibition of PCP-induced hyperlocomotion in mice (in words) [2]: inhibited; Mice ED50 (mg/kg) PCP-Inh., estimated ED50 (footnote a) [2]: 1.25 ^a) mg/kg"
CCc1nnc2c(C(F)(F)F)c(CN3CCC(F)(c4ccccc4)CC3)ccn12,6.08 ‡,–
Clc1c(CN2CCC(Oc3ccccn3)CC2)ccn2c(CC3CC3)nnc12,5.84 ‡,–

# The next lines start with results.
GTPγS - hR2 PAM pEC50 [1],SMILES,further results
7.55,CC1(c2ccccc2F)CCN(Cc2ccn3c(CC4CC4)nnc3c2C(F)(F)F)CC1,–
6.98 ‡,CC(C)(C)Cc1nnc2c(C(F)(F)F)c(CN3CCC(c4ccc(F)cc4F)CC3)ccn12,–
7.56,CCOc1c(F)cccc1N1CCN(Cc2ccn3c(CC4CC4)nnc3c2C(F)(F)F)CC1,–
7.91,Fc1ccc(N2CC3(CCCN(Cc4ccn5c(CC6CC6)nnc5c4C(F)(F)F)C3)C2)cc1,–
7.06,Fc1ccccc1C1CCN(Cc2ccn3c(CC4CC4)nnc3c2Cl)CC1,"inhibition of PCP-induced hyperlocomotion in mice (in words) [2]: inhibited; Mice ED50 (mg/kg) PCP-Inh., estimated ED50 (footnote a) [2]: 3.2 ^a) mg/kg"
6.63,FC(F)(F)c1c(CN2CCC(Oc3ccccn3)CC2)ccn2c(CC3CC3)nnc12,–
7.48 ‡,CC1(c2cccc(F)c2)CCN(Cc2ccn3c(CC4CC4)nnc3c2C(F)(F)F)CC1,–
7.23 ‡,Fc1ccc(C2CCN(Cc3ccn4c(CC5CCC5)nnc4c3C(F)(F)F)CC2)c(F)c1,–
7.71 ‡,Fc1cccc(N2CCN(Cc3ccn4c(CC5CC5)nnc4c3C(F)(F)F)CC2)c1F,–
6.78 ‡,FC(F)(F)c1c(CN2CCC(c3ccccn3)CC2)ccn2c(CC3CC3)nnc12,–
6.21,Cc1c(CN2CCC(c3ccc(F)cc3F)CC2)ccn2c(CC3CC3)nnc12,–
6.72,Fc1ccc(N2CCCC3(CN(Cc4ccn5c(CC6CC6)nnc5c4C(F)(F)F)C3)C2)cc1,–
6.92,CCCCc1nnc2c(C(F)(F)F)c(CN3CCN(c4ccc(F)cc4F)CC3)ccn12,"inhibition of PCP-induced hyperlocomotion in mice (in words) [2]: inhibited; Mice ED50 (mg/kg) PCP-Inh., estimated ED50 (footnote a) [2]: 3.1 ^a) mg/kg"
7.71,CCOc1c(F)cccc1C1CCN(Cc2ccn3c(CC4CC4)nnc3c2C(F)(F)F)CC1,–
6.41 ‡,Fc1ccc(N2CCN(Cc3ccn4c(CC5CC5)nnc4c3Cl)CC2)c(F)c1,"inhibition of PCP-induced hyperlocomotion in mice (in words) [2]: inhibited; Mice ED50 (mg/kg) PCP-Inh., estimated ED50 (footnote a) [2]: 12.6 ^a) mg/kg"
6.96,CCc1nnc2c(C(F)(F)F)c(CN3CCC(c4ccc(F)cc4F)CC3)ccn12,–

GTPγS - hR2 PAM pEC50 [1],SMILES,further results
7.25 ‡,FC(F)(F)c1c(CN2CCN(c3ccc(Cl)cn3)CC2)ccn2c(CC3CC3)nnc12,–
7.55,CC1(c2ccc(F)cc2)CCN(Cc2ccn3c(CC4CC4)nnc3c2C(F)(F)F)CC1,"inhibition of PCP-induced hyperlocomotion in mice (in words) [2]: inhibited; Mice ED50 (mg/kg) PCP-Inh., estimated ED50 (footnote a) [2]: 12.6 ^a) mg/kg"
7.27,CCCc1nnc2c(C(F)(F)F)c(CN3CCC(c4ccc(F)cc4F)CC3)ccn12,–
6.02,CCc1nnc2c(C(F)(F)F)c(CN3CCN(c4ccc(F)cc4F)CC3)ccn12,"inhibition of PCP-induced hyperlocomotion in mice (in words) [2]: inhibited; Mice ED50 (mg/kg) PCP-Inh., estimated ED50 (footnote a) [2]: 3.2 ^a) mg/kg"
6.44 ‡,Fc1ccc(OC2CCN(Cc3ccn4c(CC5CC5)nnc4c3Cl)CC2)c(F)c1,–
6.79,COc1ccccc1N1CCN(Cc2ccn3c(CC4CC4)nnc3c2C(F)(F)F)CC1,–
8.25 ‡,CC1(C)CN(Cc2ccn3c(CC4CC4)nnc3c2C(F)(F)F)CCN1c1cc(F)cc(F)c1,–
6.77 ‡,Fc1ccc(C2CCN(Cc3ccn4c(CCC5CC5)nnc4c3C(F)(F)F)CC2)c(F)c1,–
6.87,COc1cc(F)ccc1C1CCN(Cc2ccn3c(CC4CC4)nnc3c2Cl)CC1,–
7.24 ‡,Fc1ccc(OCC2CCN(Cc3ccn4c(CC5CC5)nnc4c3C(F)(F)F)CC2)c(F)c1,–
6.5,Fc1ccc(COC2CCN(Cc3ccn4c(CC5CC5)nnc4c3Cl)CC2)c(F)c1,–
7.24 ‡,Fc1ccc(N2CCN(Cc3ccn4c(CC5CC5)nnc4c3C(F)(F)F)CC2)cc1F,–
7.26,CCOc1c(F)cccc1C1CCN(Cc2ccn3c(CC4CC4)nnc3c2Cl)CC1,–
7.35 ‡,Fc1ccc(F)c(N2CCN(Cc3ccn4c(CC5CC5)nnc4c3C(F)(F)F)CC2)c1,–
7.41,COc1ccccc1C1CCN(Cc2ccn3c(CC4CC4)nnc3c2C(F)(F)F)CC1,–
